Experiments:
[1] = target: Wee1 (Homo sapiens, UniProt P30291); experiment: In vitro enzymatic inhibitory activity, Wee1 kinase (Eurofins, [γ-33P]-ATP filter assay); type: biochemical; conditions: read-out: Wee1 (IC50 nM); 10 μM [γ-33P]-ATP, 40 min at room temperature
[2] = Pharmacokinetic evaluation in plasma after single intravenous and single oral administration; conditions: female Balb/c Nude mice
[3] = tested on: human colon cancer LoVo cell subcutaneous xenograft tumor; experiment: In vivo pharmacodynamic study, LoVo subcutaneous xenograft tumor model; conditions: 40 mg/kg twice daily, after administration for 16 days
[4] = tested on: MDR1-MDCK II cells; experiment: In vitro permeability test in MDR1-MDCK II cells (bidirectional transport); conditions: 2 μM, 150 minutes
[5] = plasma, 1 mg/kg intravenous, 10 mg/kg oral study

Sequences of proteins named here, by UniProt entry; tags and fusion partners are left off.
UniProt P30291, whole entry: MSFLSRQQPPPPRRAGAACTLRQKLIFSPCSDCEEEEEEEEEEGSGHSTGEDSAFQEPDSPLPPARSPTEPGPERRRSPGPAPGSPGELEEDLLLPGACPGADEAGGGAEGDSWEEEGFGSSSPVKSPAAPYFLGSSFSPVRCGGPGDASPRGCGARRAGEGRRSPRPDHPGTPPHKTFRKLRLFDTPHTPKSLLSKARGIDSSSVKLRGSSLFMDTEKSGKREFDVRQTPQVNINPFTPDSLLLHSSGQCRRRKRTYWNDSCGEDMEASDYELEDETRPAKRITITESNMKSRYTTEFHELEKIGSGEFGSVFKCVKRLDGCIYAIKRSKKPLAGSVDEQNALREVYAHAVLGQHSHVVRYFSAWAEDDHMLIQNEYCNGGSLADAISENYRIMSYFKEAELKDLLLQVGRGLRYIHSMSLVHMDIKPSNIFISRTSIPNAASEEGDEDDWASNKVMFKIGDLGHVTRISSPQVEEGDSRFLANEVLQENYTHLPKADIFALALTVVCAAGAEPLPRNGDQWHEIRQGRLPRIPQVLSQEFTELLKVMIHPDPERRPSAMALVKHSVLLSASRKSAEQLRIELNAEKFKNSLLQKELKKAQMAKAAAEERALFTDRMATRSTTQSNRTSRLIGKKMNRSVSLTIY

| Clearance rate [2, 5] [mL/min/kg] | Concentration integral AUC [2, 5] [µM·h] | Half-life T1/2 [2, 5] [h] | Bioavailability F ([2]; 10 mg/kg by gavage vs 1 mg/kg intravenous) [%] | Efflux ratio [4] | Penetration rate A to B ([4]; A to B) | Penetration rate B to A ([4]; B to A) | Structure (SMILES) | IC50 [1] [nM] | TGI (%) [3] [%] |
| --- | --- | --- | --- | --- | --- | --- | --- | --- | --- |
|  |  |  |  |  |  |  | CN1CCN(c2ccc(Nc3ncc4c(=O)n5n(c4n3)-c3cccc(n3)C(C)(O)CCCCC5)cc2)CC1 (single isomer, unassigned) | 93 |  |
|  |  |  |  |  |  |  | CN1CCN(c2ccc(Nc3ncc4c(=O)n5n(c4n3)-c3cccc(n3)C(O)CC/C=C\C5)cc2)CC1 (single isomer, unassigned) | 92 |  |
| 46.7 | 5.166 | 1.3 | 74.6 | 4.19 | 4.76 10^−6 cm/s | 19.94 10^−6 cm/s | CN1CCN(c2ccc(Nc3ncc4c(=O)n5n(c4n3)-c3cccc(n3)C(C)(O)CC/C=C\C5)cc2)CC1 (single isomer, unassigned) [Compound 1] | 58 | 48.67 |

From patent publication US11613545B2, “Macrocyclic compound serving as Wee1 inhibitor and applications thereof” (WUXI BIOCITY BIOPHARMACEUTICS CO., LTD., priority 2017, dated 2023)
